Earlier results in patent US20250356984A1 (priority 2022, published 2025).

Details: 2.0 mg/kg of propofol

Structure (SMILES): CC(C)c1cccc(C(C)C)c1O [propofol]
- time a patient is maintained within the therapeutic range: approximately 8 minutes
